Source: patent publication US8394765B2, “Methods of treating obesity with two different anti-obesity agents” (Amylin Pharmaceuticals LLC, priority 2004, dated 2013)

Legend:
[1] = Adsorption onto glass container in liquid form; assay type: physicochemical
[2] = treated test animals; e.g. provoking marked hyperlactemia followed by hyperglycemia; cited from earlier work
[3] = compared to human amylin; cited from earlier work

CC[C@H](C)[C@H](NC(=O)[C@@H]1CCCN1C(=O)CNC(=O)[C@H](Cc1ccccc1)NC(=O)[C@H](CC(N)=O)NC(=O)[C@H](CC(N)=O)NC(=O)[C@H](CO)NC(=O)[C@H](CO)NC(=O)[C@H](Cc1c[nH]cn1)NC(=O)[C@@H](NC(=O)[C@H](CC(C)C)NC(=O)[C@H](Cc1ccccc1)NC(=O)[C@H](CC(N)=O)NC(=O)[C@H](C)NC(=O)[C@H](CC(C)C)NC(=O)[C@H](CCCNC(=N)N)NC(=O)[C@H](CCC(N)=O)NC(=O)[C@@H](NC(=O)[C@H](C)NC(=O)[C@@H]1CSSC[C@H](NC(=O)[C@@H](N)CCCCN)C(=O)N[C@@H](CC(N)=O)C(=O)N[C@@H]([C@@H](C)O)C(=O)N[C@@H](C)C(=O)N[C@@H]([C@@H](C)O)C(=O)N1)[C@@H](C)O)C(C)C)C(=O)N[C@@H](CC(C)C)C(=O)N1CCC[C@H]1C(=O)N1CCC[C@H]1C(=O)N[C@H](C(=O)N[C@@H](CC(N)=O)C(=O)N[C@H](C(=O)NCC(=O)N[C@@H](CO)C(=O)N[C@@H](CC(N)=O)C(=O)N[C@H](C(=O)N[C@@H](Cc1ccc(O)cc1)C(N)=O)[C@@H](C)O)C(C)C)[C@@H](C)O [pramlintide]
tendency to adsorb onto the glass in a glass container [1]: does not have a tendency to adsorb onto the glass
amylin activity in vivo [2]: show amylin activity in vivo
solubility and stability characteristics [3]: more desirable solubility and stability characteristics
